{"source": "paper PMC4459640", "about": "(European journal of pharmaceutical sciences : official …, 2014)", "key": {"[1]": {"system": "HepG2 human hepatoma cells"}, "[2]": {"settings": "50 µM substrate, 20 min; ND = below detection limit ~0.1 pmol/min/mg protein"}, "[3]": {"experiment": "Sulfating activity of human lung S9 fraction", "settings": "50 µM substrate, 20 min; ND = below detection limit ~0.1 pmol/min/mg protein"}, "[4]": {"experiment": "Sulfating activity of human kidney S9 fraction", "settings": "50 µM substrate, 20 min; ND = below detection limit ~0.1 pmol/min/mg protein"}, "[5]": {"experiment": "Sulfating activity of human small intestine S9 fraction", "settings": "50 µM substrate, 20 min; ND = below detection limit ~0.1 pmol/min/mg protein"}}, "data": [{"compound": "CN1CC[C@]23c4c5ccc(O)c4O[C@H]2C(=O)CC[C@H]3[C@H]1C5", "note": "[Hydromorphone, hydromorphone]", "values": [{"measurement": "Efficiency of sulfation by HepG2 cells relative to the other three opioid drugs", "setting": "[1]", "result": "more efficiently"}, {"measurement": "Specific activity, Liver", "setting": "[2]", "result": "7.1 ± 1.1", "unit": "pmol/min/mg"}, {"measurement": "Specific activity, Lung", "setting": "[3]", "result": "6.3 ± 0.2", "unit": "pmol/min/mg"}, {"measurement": "Specific activity, Kidney", "setting": "[4]", "result": "3.2 ± 0.5", "unit": "pmol/min/mg"}, {"measurement": "Specific activity, Small Intestine", "setting": "[5]", "result": "40.0 ± 0.7", "unit": "pmol/min/mg"}]}]}
